The text below walks through data of ChEMBL document CHEMBL4033781 (J Med Chem, 2018).

Protein sequences, listed by entry. Tags and fused reporters are not part of them.
UniProt Q64541, whole entry: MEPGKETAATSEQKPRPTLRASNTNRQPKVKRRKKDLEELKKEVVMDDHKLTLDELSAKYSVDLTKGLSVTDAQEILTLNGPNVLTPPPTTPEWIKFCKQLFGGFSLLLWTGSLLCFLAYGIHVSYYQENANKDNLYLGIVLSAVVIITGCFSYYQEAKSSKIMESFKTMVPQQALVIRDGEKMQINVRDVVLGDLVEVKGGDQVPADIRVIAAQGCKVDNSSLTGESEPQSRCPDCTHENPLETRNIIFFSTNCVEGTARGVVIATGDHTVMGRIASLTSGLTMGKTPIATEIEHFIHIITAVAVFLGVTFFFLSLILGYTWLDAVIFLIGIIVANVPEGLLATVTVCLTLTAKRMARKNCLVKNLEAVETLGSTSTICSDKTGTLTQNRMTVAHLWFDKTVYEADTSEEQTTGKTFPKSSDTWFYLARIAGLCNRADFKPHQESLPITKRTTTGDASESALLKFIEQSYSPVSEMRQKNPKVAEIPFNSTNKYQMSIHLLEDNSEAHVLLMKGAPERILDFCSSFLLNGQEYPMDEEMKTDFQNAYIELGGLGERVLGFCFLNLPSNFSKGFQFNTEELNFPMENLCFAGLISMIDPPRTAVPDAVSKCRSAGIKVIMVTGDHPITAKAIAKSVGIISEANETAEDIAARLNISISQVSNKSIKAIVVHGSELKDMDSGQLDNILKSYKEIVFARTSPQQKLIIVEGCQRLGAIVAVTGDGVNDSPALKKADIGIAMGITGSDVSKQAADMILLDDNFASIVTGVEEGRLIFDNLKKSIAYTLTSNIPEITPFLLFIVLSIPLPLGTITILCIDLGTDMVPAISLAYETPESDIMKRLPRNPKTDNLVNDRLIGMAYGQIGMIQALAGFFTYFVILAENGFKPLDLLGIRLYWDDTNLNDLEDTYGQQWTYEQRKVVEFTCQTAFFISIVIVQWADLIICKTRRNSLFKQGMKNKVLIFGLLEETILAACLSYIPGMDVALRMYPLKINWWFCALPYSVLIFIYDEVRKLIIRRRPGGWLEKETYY

Calls of active or inactive are those of the source. The rule behind the calls is not given here.

The target of test [1] is Sodium/potassium-transporting ATPase subunit alpha-4 (Rattus norvegicus) (UniProt Q64541). The test can be described thus: Inhibition of Na+/K+-ATPase alpha4 in Long Evans rat cauda epididymis sperm assessed as reduction in sperm average path velocity at 10^-12 to 10^-4 M after 1 hr by SYTO staining based microscopic method.
Test [2] has the same target. The test can be described thus: Inhibition of Na+/K+-ATPase alpha4 in Long Evans rat cauda epididymis sperm assessed as reduction in sperm beat cross frequency at 10^-12 to 10^-4 M after 1 hr by SYTO staining based microscopic method.
Test [3] has the same target. The test can be described thus: Inhibition of Na+/K+-ATPase alpha4 in Long Evans rat cauda epididymis sperm assessed as reduction in sperm curvilinear velocity at 10^-12 to 10^-4 M after 1 hr by SYTO staining based microscopic method.
Test [4] has the same target. Conditions: Long Evans, 10^-8 M.
Test [5] shares this target. Nature of the test: Inhibition of Na+/K+-ATPase alpha4 in Long Evans rat cauda epididymis sperm assessed as reduction in sperm straight line velocity at 10^-12 to 10^-4 M after 1 hr by SYTO staining based microscopic method.
For test [6] the target is unchanged. The test can be described thus: Inhibition of Na+/K+-ATPase alpha4 in Long Evans rat cauda epididymis sperm assessed as reduction in sperm motility at 10^-8 M preincubated for 1 hr followed by compound washout measured up to 2 hrs by SYTO staining based microscopic method. The procedure, abridged:
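Rat cauda epididymal sperm in modified Tyrode's medium were treated with or without compound. Motility was measured by SYTO 21/CASA before and after three washes in modified Tyrode's medium, at times up to 2 h. Values are mean ± SEM of three determinations.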

For test [7] the target is unchanged. Nature of the test: Inhibition of Na+/K+-ATPase alpha4 in Long Evans rat cauda epididymis sperm assessed as reduction in sperm average path linearity at 10^-12 to 10^-4 M after 1 hr by SYTO staining based microscopic method.
For test [8] the target is unchanged. To be noted: Long Evans, 10^-8 M. This is another data set of the same source.
Test [9] has the same target. The test can be described thus: Inhibition of Na+/K+-ATPase alpha4 in Long Evans rat cauda epididymis sperm assessed as reduction in sperm progressive motility at 10^-12 to 10^-4 M after 1 hr by SYTO staining based microscopic method.
For test [10] the target is unchanged. Conditions: Long Evans, 10^-8 M. The source holds these as a separate data set.
For test [11] the target is unchanged. Nature of the test: Inhibition of Na+/K+-ATPase alpha4 in Long Evans rat cauda epididymis sperm assessed as reduction in total sperm motility at 10^-12 to 10^-4 M after 1 hr by SYTO staining based microscopic method.

For the molecule `C[C@]12C[C@@H](O)[C@H]3[C@@H](CC[C@]4(O)C[C@@H](O)C[C@@H](O)[C@]34CO)[C@@]1(O)CC[C@@H]2c1cn(Cc2ccccc2)nn1`, the inhibition result in test [1], in test [2], in [3], in test [5], in test [6] and in test [7] was “Active” in each case. The inhibition result in test [8], in [9] and in [11] was “Active” in each case. The inhibition entry in [4] was “Tde”; in test [10], 70%.

A word on the inhibition: it is the share of the control response that was lost under treatment.
